Counter-ions that a name gives are not always drawn.
Biological target: hERG channel (Homo sapiens, UniProt Q12809)
Settings: LOPAC 1280 library qHTS, titration series, hERG-expressing U-2 OS cells

Sequences of proteins named here, by UniProt entry; tags and fusion partners are left off. A change or cut given only in a name is not applied to a line headed by its entry.
UniProt Q12809: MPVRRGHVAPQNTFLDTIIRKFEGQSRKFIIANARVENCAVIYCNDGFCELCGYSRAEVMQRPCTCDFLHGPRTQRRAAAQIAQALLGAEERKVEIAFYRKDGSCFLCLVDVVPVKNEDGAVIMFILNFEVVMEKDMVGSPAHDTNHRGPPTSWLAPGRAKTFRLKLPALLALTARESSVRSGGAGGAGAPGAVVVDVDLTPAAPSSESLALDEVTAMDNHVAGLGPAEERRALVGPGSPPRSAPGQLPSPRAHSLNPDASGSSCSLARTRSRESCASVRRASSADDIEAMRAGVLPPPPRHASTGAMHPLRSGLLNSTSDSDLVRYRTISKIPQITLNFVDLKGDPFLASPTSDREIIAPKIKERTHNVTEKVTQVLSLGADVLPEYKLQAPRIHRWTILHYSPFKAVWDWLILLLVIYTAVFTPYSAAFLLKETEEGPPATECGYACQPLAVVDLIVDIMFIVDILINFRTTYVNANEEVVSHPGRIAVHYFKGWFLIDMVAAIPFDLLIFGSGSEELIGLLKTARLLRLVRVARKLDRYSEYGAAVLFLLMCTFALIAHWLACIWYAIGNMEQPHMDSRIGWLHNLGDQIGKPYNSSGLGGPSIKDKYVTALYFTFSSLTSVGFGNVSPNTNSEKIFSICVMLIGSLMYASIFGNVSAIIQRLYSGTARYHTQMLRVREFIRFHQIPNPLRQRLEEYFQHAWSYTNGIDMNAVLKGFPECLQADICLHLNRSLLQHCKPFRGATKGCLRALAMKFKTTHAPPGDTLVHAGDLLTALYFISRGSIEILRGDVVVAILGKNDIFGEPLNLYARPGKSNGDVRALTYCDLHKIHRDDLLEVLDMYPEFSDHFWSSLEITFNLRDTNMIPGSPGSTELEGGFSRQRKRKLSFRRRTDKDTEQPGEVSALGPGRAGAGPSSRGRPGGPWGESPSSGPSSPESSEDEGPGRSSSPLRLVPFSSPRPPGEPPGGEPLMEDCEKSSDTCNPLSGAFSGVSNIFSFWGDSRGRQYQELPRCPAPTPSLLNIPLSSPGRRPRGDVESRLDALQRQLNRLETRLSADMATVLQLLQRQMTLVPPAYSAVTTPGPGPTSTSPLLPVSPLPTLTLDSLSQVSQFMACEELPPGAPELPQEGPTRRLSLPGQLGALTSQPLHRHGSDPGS

Question: `Fc1ccc(C(OCCN2CCN(CCCc3ccccc3)CC2)c2ccc(F)cc2)cc1` [GBR-12909 dihydrochloride] was tested. Which IC50 did it give?
Answer: 220 nM

From paper PMC2766802 (Analytical biochemistry, 2009)
